What was measured:
[1] = target: T1, A1 human adenosine receptor (A1R) (Homo sapiens, UniProt P30542); test: Radioligand binding competition assay, human A1 receptor in transfected CHO cells; details: Cheng-Prusoff approximation
T1 construct: expressed in transfected cells; host or cells: CHO
Method: (§1) Bioactivity testing was performed using A1 and A2A human adenosine receptors expressed in transfected CHO (A1) and HeLa (A2A) cells, as well as AD293 cells that were transiently transfected with human PDE10A. Table 1 includes the list of synthesized 4,6-substituted 2-amino-pyridin-3-carbonitriles, along with their Ki values against A1R, A2AR, and IC50 values against PDE10A.
(§2) Pharmacological evaluation was performed in a radioligand binding competition assay, using A1, A2A, A2B, and A3 human receptors expressed in transfected CHO (A1), HeLa (A2A and A3), and HEK-293 (A2B) according to the procedure reported by Bosch et al..

Protein sequences, listed by entry. Tags and fused reporters are not part of them. Lines headed by an entry give the natural chain unless they say otherwise; changes in a name come on top.
UniProt P30542, whole entry: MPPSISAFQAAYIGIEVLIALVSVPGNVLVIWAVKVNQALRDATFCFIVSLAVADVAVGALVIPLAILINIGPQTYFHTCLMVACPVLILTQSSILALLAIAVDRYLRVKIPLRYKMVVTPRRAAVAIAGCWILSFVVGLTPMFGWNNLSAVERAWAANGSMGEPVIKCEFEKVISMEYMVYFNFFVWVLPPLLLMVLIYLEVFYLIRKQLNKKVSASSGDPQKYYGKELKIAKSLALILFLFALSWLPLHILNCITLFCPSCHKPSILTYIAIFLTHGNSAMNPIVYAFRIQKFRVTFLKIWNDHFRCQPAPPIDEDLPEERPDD

[2] = target: T2, A2A human adenosine receptor (A2AR) (Homo sapiens, UniProt P29274); test: Radioligand binding competition assay, human A2A receptor in transfected HeLa cells; details: Cheng-Prusoff approximation
T2 construct: expressed in transfected cells; host or cells: HeLa
Method: as §1, §2

Ki [1]: 34 nM
Ki [2]: 41 ± 2 nM
SMILES: COc1ccc(-c2cc(-c3ccco3)nc(N)c2C#N)cc1 [Compound 16, 2-amino-6-(furan-2-yl)-4-(4-methoxyphenyl)pyridine-3-carbonitrile]

Reference: article PMC5748027, “Computer-aided design of multi-target ligands at A1R, A2AR and PDE10A, key proteins in neurodegenerative diseases” (Journal of Cheminformatics, 2017)
